## Ab-14 heavy chain CDR variants: yeast mating affinities

Reference: Li et al. 2023, doi:10.1038/s41467-023-39022-2. File: FLAb, binding data.

Antigen: PDVDLGDISGINAS, a 14-residue peptide of the SARS-CoV-2 spike HR2 region.

Parent scFv Ab-14: VH joined to VL by a (GGGGS)3 linker. Changes lie in the heavy chain CDRs alone.
VH: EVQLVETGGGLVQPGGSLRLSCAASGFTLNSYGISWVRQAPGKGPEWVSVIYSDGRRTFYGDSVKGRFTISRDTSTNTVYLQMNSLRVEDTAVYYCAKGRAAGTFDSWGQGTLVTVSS
VL: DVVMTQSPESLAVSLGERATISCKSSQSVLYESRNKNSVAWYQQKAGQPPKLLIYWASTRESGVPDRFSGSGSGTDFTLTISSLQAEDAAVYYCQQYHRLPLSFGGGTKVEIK

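Phage display of a naive human antibody library on the peptide gave the parent. The variants were designed computationally from a first round of random CDR variants and then made and measured. Several design methods are mixed in this list. The assay is AlphaSeq: two haploid yeast populations carry antibody and antigen on their surface. Binding brings cells together so that they mate, and sequencing counts the barcode pairs among the diploids. The ratio of observed to expected reads was calibrated, replicate by replicate, on BCL2-family standards whose Kd was known from biolayer interferometry. There are six technical replicates.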

Variants are written as CDR1, CDR2 and CDR3 of the heavy chain (limits as in the source). Parent: GFTLNSYGIS, VIYSDGRRTFYGDSVK, GRAAGTFDS. Numbers give log10(Kd / nM), so 0 is 1 nM and 3 is 1 µM. Smaller is tighter. A mean of the replicates is given; it leaves out those without a signal. "not detected" means that the variant was in the library but no mating with the target was seen in any replicate; the authors take this as a sign of poor binding, and no number exists.

| CDR-H1 | CDR-H2 | CDR-H3 | mean log10 Kd (nM) | replicates with signal | empty controls |
|---|---|---|---|---|---|
| GFDLNEYGIS | VIYADGVRTAYTDSVK | GANAGTFDQ | not detected | 0/6 | 0/18 |
| GFNLNEYGIS | VIYADGRRTFYADSVK | GEIAGSFDI | -0.23 | 6/6 | 1/18 |
| GFKINEYGIS | VIYADGQRVAYTNSFK | GTQAGQFIN | not detected | 0/6 | 0/18 |
| GFDLNEYGIS | VIYADGMRTAYADSVK | GNNGGTFDV | 0.67 | 6/6 | 0/18 |
| GFDLNEYGIS | VIYADGMRTAYSDSVK | GQNAGTFDQ | 0.21 | 6/6 | 0/18 |
| GFTLNDYGIS | VIYSDGLRTFYGDSVK | GRAAGYFDS | not detected | 0/6 | 0/18 |
| GFDLNEYGIS | VIYADGMRTFYADSVK | GENAGTFDI | -2.18 | 6/6 | 0/18 |
| GFTLNEYGIS | VIYSDGRRTQYMDSVK | GRAAGTFDS | 0.62 | 5/6 | 0/18 |
| GFELNSYGIS | VIYSDGRRTFYDDSVK | GQTAGTFDS | 0.47 | 6/6 | 0/18 |
| GDDLEDYGIS | VIYADGRRTAYQESVK | GLYAGAIDV | not detected | 0/6 | 1/18 |
| GFTLNSYGIS | VIYSDGRRTFYIDSVK | GRYAGTFDS | 2.11 | 2/6 | 0/18 |
| GFDLGEYGIS | VIYADGQRRAYIDAVK | GHSSVDYLA | 3.90 | 1/6 | 1/18 |
| GFDLNEYGIS | VIYADGRRTAYADDVK | GNQAGTFDM | -0.43 | 6/6 | 0/18 |
| GFDLNEYGIS | VIYADGIRSRYANKVK | GNGAGTLDD | not detected | 0/6 | 1/18 |
| GFTLNEYGIS | VIYSDGRRTFYSDSVK | GRAAGFFDS | not detected | 0/6 | 1/18 |
| GFDLNSYGIS | VIYSDGRRTFYGDSVK | GDAAGTFDN | not detected | 0/6 | 2/18 |
| GFTLNSYGIS | VIYSDGRRTFYEDSVK | GKLAGTFDS | not detected | 0/6 | 0/18 |
| GFTLNSYGIS | VIYSDGKRTFYADNVK | GQAAGTFDL | 1.38 | 6/6 | 0/18 |
| GFTLESYGIS | VIYSDGRRTFYGDSVK | GEAAGTFDS | 2.02 | 3/6 | 0/18 |
| GFTLNSYGIS | VILSDGRRKFYNDSVK | GQLAGTFDS | not detected | 0/6 | 0/18 |
| GFDLDEYGIS | VIYADGRRTFYADSVK | GTLAGTFDM | -0.50 | 6/6 | 0/18 |
| GFGLDEYGIS | VIYADGRRTFYADSVK | GENAGTFDV | -0.56 | 6/6 | 0/18 |
| GFTLKSYGIS | VIYSDGRRTFYADSVK | GKLAGTFDS | 1.62 | 4/6 | 0/18 |
| GFDLNEYGIS | VIYADGMRQAYADSVK | GENAGTFDI | -1.15 | 6/6 | 0/18 |
| GFDLNEYGIS | VIYADGLRTQYAESFK | GDLAGYFMS | not detected | 0/6 | 0/18 |
| GFDIMEYGVS | VIYADGVRTAYTQDVK | GENLDSYVD | 1.67 | 6/6 | 0/18 |
| GFQLDEYGIS | VIYADGMRTFYADSVK | GEVAGTFDV | -0.17 | 6/6 | 0/18 |
| GFDLDEYGIS | VIYADGRRTAYADSVK | GNVAGTFDT | 0.11 | 6/6 | 1/18 |
| GFDLNEYGIS | VIYADGMRTAYSDSVK | GQVAGTFDQ | 0.04 | 6/6 | 0/18 |
| GFDLDEYGIS | VIYADGQRTAYADSVK | GNTAGTFDL | -0.39 | 6/6 | 0/18 |
| GFNINEYGIS | VIYADGLRVAYIDSVK | GNASIFGVD | not detected | 0/6 | 1/18 |
| GFTLNSYGIS | VIYSDGRRTFYGDDVK | GRVAGTFDK | 2.39 | 4/6 | 0/18 |
| GFNLNSYGIS | VIYSDGRRTFYQDSVK | GNAAGTFDS | 0.81 | 6/6 | 0/18 |
| GFTLDSYGMS | VIYSDGRRTFYGDSVK | GRAAGTALS | not detected | 0/6 | 1/18 |
| GFTLNSYGIS | VIYSDGRRTFYSDSVK | GEAGGTFDV | 1.38 | 6/6 | 0/18 |
| GFTLTSYGIS | VIYSDGRRTFYGDSVR | CRRAGTFDS | not detected | 0/6 | 0/18 |
| GFELNMYGIS | VIYSDGRRTFYGDSVK | GRNAGTFDS | 0.51 | 6/6 | 0/18 |
| GFRLNSYGIS | VIYSDGIRTFYGDSVK | GRAAGTFDS | not detected | 0/6 | 0/18 |
| GFSLNSYGIS | VIYSDGKRTFYGDSVK | GNAAGTFDS | -0.13 | 2/6 | 0/18 |
| GFDLNEYGIS | VIYADGVRTAYSDSVK | GQVAGTFDV | -0.44 | 6/6 | 0/18 |
| GFEIQEYGIS | VIYADGRRTAYAENVK | GTMGGTLST | 1.95 | 5/6 | 0/18 |
| GFDLDEYGIS | VIYADGRRTFYTDSVK | GQNAGTFDV | -0.26 | 6/6 | 0/18 |
| QFTPNSYGIS | VIYSDGRRTFYGDSVK | GYAGGTFDS | not detected | 0/6 | 0/18 |
| GFDLNEYGIS | VIYADGMRTAYADDVK | GDNAGTFDI | -0.29 | 6/6 | 0/18 |
| GFTINQYGIS | VIYSDGRRTFYSDSVK | GRAAGFFDS | not detected | 0/6 | 1/18 |
| GFDLNSYGIS | VIYSDGKRTFYGDSVK | GRIAGTFDS | 0.46 | 6/6 | 0/18 |
| GFDLNEYGIS | VIYADGRRTAYSDSVK | GQNAGFFDS | not detected | 0/6 | 1/18 |

5 of these entries, quoted again:

CDR-H1	CDR-H2	CDR-H3	mean log10 Kd (nM)	replicates with signal	empty controls
GFDLDEYGIS	VIYADGRRTFYADSVK	GTLAGTFDM	-0.50	6/6	0/18
GDDLEDYGIS	VIYADGRRTAYQESVK	GLYAGAIDV	not detected	0/6	1/18
GFRLNSYGIS	VIYSDGIRTFYGDSVK	GRAAGTFDS	not detected	0/6	0/18
GFDLNEYGIS	VIYADGRRTAYADDVK	GNQAGTFDM	-0.43	6/6	0/18
GFTLNSYGIS	VIYSDGRRTFYIDSVK	GRYAGTFDS	2.11	2/6	0/18

Values of this round are not directly comparable with the first-round values of the same sequences. Of ten entries with the parent sequence, four were seen in most replicates (averages 0.34 to 2.37), three in one and three in none, so single entries are noisy. Empty control strains, which show no peptide, gave a signal in 1% of pairings with all heavy chain designs; the median was 2.08 and 95% of these signals were weaker than 0.84. No background was subtracted. For each scFv, signals with the empty controls are counted beside the result. The authors' rule: three or more of the six replicates give a measured affinity, fewer mean a poor binder.